This assay concerns influenza virus (multiple flu strains). The assay is described as follows: organism not typed. As to conditions: MDCK.
The mark [1] stands for this setting: read-out: NA Alaska H3N2, NA assay, Alaska H3N2 strain.
Setting [2] is: read-out: NA Alaska H3N2 IC50, NA assay, Alaska H3N2 strain.
Setting [3] is: read-out: NA CAL H1N1 IC50, NA assay, CAL H1N1 strain.
Setting [4] is: read-out: NA CAL H1N1, NA assay, CAL H1N1 strain.

Where two headings read alike, the source gives them in different places.

As for `NC(=O)c1cc(-c2ccc(OC[C@@H]3CO[C@@H](CO)CO3)cc2)c(C(F)(F)F)[nH]c1=O` [Example 204, 5-(4-(((2S,5S)-5-(hydroxymethyl)-1,4-dioxan-2-yl)methoxy)phenyl)-2-oxo-6-(trifluoromethyl)-1,2-dihydropyridine-3-carboxamide], under setting [1], the IC50 is 5 to 10 µM. Turning to `C[C@@H]1COC[C@@H](COc2ccc(-c3cc(C(N)=O)c(=O)[nH]c3C(F)(F)F)cc2)O1` [Example 329, 5-(4-(((2S,6R)-6-methyl-1,4-dioxan-2-yl)methoxy)phenyl)-2-oxo-6-(trifluoromethyl)-1,2-dihydropyridine-3-carboxamide], the IC50 under setting [2] lay within 0.01 to 0.1 µM and the IC50 under setting [3] is 0.1 to 1 µM.

Consider `NC(=O)c1cc(-c2ccc(OCC3COCCO3)c(Cl)c2)c(C(F)(F)F)[nH]c1=O` (stereo not shown) [Example 240, 5-(4-((1,4-dioxan-2-yl)methoxy)-3-chlorophenyl)-2-oxo-6-(trifluoromethyl)-1,2-dihydropyridine-3-carboxamide], for which the IC50 fell in the range of 0.1 to 1 µM under setting [2] and 5 to 10 µM under setting [3]. In the case of `NC(=O)c1cc(-c2ccc(OCc3cccc([N+](=O)[O-])c3)cc2)c(C(F)(F)F)[nH]c1=O` [Example 54, 5-(4-((3-nitrobenzyl)oxy)phenyl)-2-oxo-6-(trifluoromethyl)-1,2-dihydropyridine-3-carboxamide], the IC50 lay within 0.1 to 1 µM under setting [1] and 0.1 to 1 µM under setting [4]. As for `CC1(COc2ccc(-c3cc(C(N)=O)c(=O)[nH]c3C(F)(F)F)cc2)COC1` [Example 227], the IC50 was in the range of 0.1 to 1 µM under setting [2] and 1 to 5 µM under setting [3]. For the molecule `NC(=O)c1cc(-c2ccc(OCc3ccc(Cl)cn3)cc2)c(C(F)(F)F)[nH]c1=O` [Example 105, 5-(4-((5-chloropyridin-2-yl)methoxy)phenyl)-2-oxo-6-(trifluoromethyl)-1,2-dihydropyridine-3-carboxamide], the IC50 runs as follows: under setting [1], 0.1 to 1 µM; under setting [4], 1 to 5 µM. Taken in the same sequence, the figures for `COCC(Oc1ccc(-c2cc(C(N)=O)c(=O)[nH]c2C(F)(F)F)cc1)c1cccnc1` (stereo not shown) [Example 186, 5-(4-(2-methoxy-1-(pyridin-3-yl)ethoxy)phenyl)-2-oxo-6-(trifluoromethyl)-1,2-dihydropyridine-3-carboxamide] were 1 to 5 µM and 1 to 5 µM. For the molecule `COc1c(C)cnc(COc2ccc(-c3cc(C(N)=O)c(=O)[nH]c3C(F)(F)F)cc2)c1C` [Example 113, 5-(4-((4-methoxy-3,5-dimethylpyridin-2-yl)methoxy)phenyl)-2-oxo-6-(trifluoromethyl)-1,2-dihydropyridine-3-carboxamide], the IC50 reads like this: under setting [1], 1 to 5 µM; under setting [4], 5 to 10 µM.

For the molecule `CS(=O)(=O)C1(COc2ccc(-c3cc(C(N)=O)c(=O)[nH]c3C(F)(F)F)cc2)CC1` [Example 252, 5-(4-((1-(methylsulfonyl)cyclopropyl)methoxy)phenyl)-2-oxo-6-(trifluoromethyl)-1,2-dihydropyridine-3-carboxamide], the IC50 was in the range of 0.1 to 1 µM under setting [2] and 1 to 5 µM under setting [3]. Turning to `CS(=O)(=O)Nc1ccc(-c2cc(C(N)=O)c(=O)[nH]c2C(F)(F)F)cc1` [Example 11, 5-(4-(methylsulfonamido)phenyl)-2-oxo-6-(trifluoromethyl)-1,2-dihydropyridine-3-carboxamide], the IC50 under setting [1] lay within 0.1 to 1 µM and the IC50 under setting [4] was 1 to 5 µM. Regarding `NC(=O)c1cc(-c2ccc(OCc3ccc(C(F)(F)F)cc3)cc2)c(C(F)(F)F)[nH]c1=O` [Example 87, 2-oxo-6-(trifluoromethyl)-5-(4-((4-(trifluoromethyl)benzyl)oxy)phenyl)-1,2-dihydropyridine-3-carboxamide], the IC50 runs as follows: under setting [1], 0.1 to 1 µM; under setting [4], 5 to 10 µM. `NC(=O)c1cc(-c2ccc(OCC3COCCN3)cc2)c(C(F)(F)F)[nH]c1=O` (stereo not shown) [Example 246, 5-(4-(morpholin-3-ylmethoxy)phenyl)-2-oxo-6-(trifluoromethyl)-1,2-dihydropyridine-3-carboxamide]: the IC50 under setting [2] lay in the range of 10 to 25 µM.

Consider `NC(=O)c1cc(-c2ccc(OCc3cnc(OCCO)nc3)cc2)c(C(F)(F)F)[nH]c1=O` [Example 152, 5-(4-((2-(2-hydroxyethoxy)pyrimidin-5-yl)methoxy)phenyl)-2-oxo-6-(trifluoromethyl)-1,2-dihydropyridine-3-carboxamide], for which the IC50 runs as follows: under setting [1], 5 to 10 µM; under setting [4], 10 to 25 µM. Taken in the same sequence, the figures for `CCCOc1ncc(COc2ccc(-c3cc(C(N)=O)c(=O)[nH]c3C(F)(F)F)cc2)cn1` [Example 153, 2-oxo-5-(4-((2-propoxypyrimidin-5-yl)methoxy)phenyl)-6-(trifluoromethyl)-1,2-dihydropyridine-3-carboxamide] were 0.1 to 1 µM and 1 to 5 µM. Taken in the same sequence, the figures for `N#Cc1ccccc1COc1ccc(-c2cc(C(N)=O)c(=O)[nH]c2C(F)(F)F)cc1` [Example 89, 5-(4-((2-cyanobenzyl)oxy)phenyl)-2-oxo-6-(trifluoromethyl)-1,2-dihydropyridine-3-carboxamide] were 0.1 to 1 µM and 0.1 to 1 µM.

Turning to `NC(=O)c1cc(-c2ccc(OCC3CNCCCO3)cc2)c(C(F)(F)F)[nH]c1=O` (stereo not shown) [Example 195, 5-(4-((1,4-oxazepan-2-yl)methoxy)phenyl)-2-oxo-6-(trifluoromethyl)-1,2-dihydropyridine-3-carboxamide], under setting [1], the IC50 is 5 to 10 µM. On to `NC(=O)c1cc(-c2ccc(OCC3CCCCC3)cc2)c(C(F)(F)F)[nH]c1=O` [Example 58, 5-(4-(cyclohexylmethoxy)phenyl)-2-oxo-6-(trifluoromethyl)-1,2-dihydropyridine-3-carboxamide], for which the IC50 by setting is: under setting [1], 5 to 10 µM; under setting [4], 1 to 5 µM. Consider `NC(=O)c1cc(-c2ccc(OCc3ccn4ccnc4c3)cc2)c(C(F)(F)F)[nH]c1=O` [Example 91, 5-(4-(imidazo[1,2-a]pyridin-7-ylmethoxy)phenyl)-2-oxo-6-(trifluoromethyl)-1,2-dihydropyridine-3-carboxamide], for which the IC50 under setting [1] was in the range of 1 to 5 µM. With `CC1(C)CN(Cc2ccc(-c3cc(C(N)=O)c(=O)[nH]c3C(F)(F)F)cc2)CCO1` [Example 39, 5-(4-((2,2-dimethylmorpholino)methyl)phenyl)-2-oxo-6-(trifluoromethyl)-1,2-dihydropyridine-3-carboxamide], the IC50 by setting is: under setting [1], 0.1 to 1 µM; under setting [4], 0.1 to 1 µM.

On to `NC(=O)c1cc(-c2ccc(OCc3cnc(OC4CCCC4)nc3)cc2)c(C(F)(F)F)[nH]c1=O` [Example 155, 5-(4-((2-(cyclopentyloxy)pyrimidin-5-yl)methoxy)phenyl)-2-oxo-6-(trifluoromethyl)-1,2-dihydropyridine-3-carboxamide], for which the IC50 runs as follows: under setting [1], 0.1 to 1 µM; under setting [4], 1 to 5 µM. In the case of `NC(=O)c1cc(-c2ccc(OCC3CCCOC3)cc2)c(C(F)(F)F)[nH]c1=O` (stereo not shown) [Example 102, 2-oxo-5-(4-((tetrahydro-2H-pyran-3-yl)methoxy)phenyl)-6-(trifluoromethyl)-1,2-dihydropyridine-3-carboxamide], the IC50 under setting [1] was 0.01 to 0.1 µM and the IC50 under setting [4] lay within 0.1 to 1 µM.

With `NC(=O)c1cc(-c2ccc(OCC3COCCO3)cc2F)c(C(F)(F)F)[nH]c1=O` (stereo not shown) [Example 245, 5-(4-((1,4-dioxan-2-yl)methoxy)-2-fluorophenyl)-2-oxo-6-(trifluoromethyl)-1,2-dihydropyridine-3-carboxamide], the IC50 lay in the range of 0.1 to 1 µM under setting [2] and 10 to 25 µM under setting [3].

The values above are taken from patent US20240360082A1, “SUBSTITUTED PYRIDONE COMPOUNDS USEFUL TO TREAT ORTH[…]” (priority 2021, published 2024).
